In one experiment the target is D-dimer. The following applies: literature; cited from earlier work.
The next experiment addresses T1, D-dimer protein (Homo sapiens, UniProt P02679).
T1 sequence (P02679 114-432 limits assumed): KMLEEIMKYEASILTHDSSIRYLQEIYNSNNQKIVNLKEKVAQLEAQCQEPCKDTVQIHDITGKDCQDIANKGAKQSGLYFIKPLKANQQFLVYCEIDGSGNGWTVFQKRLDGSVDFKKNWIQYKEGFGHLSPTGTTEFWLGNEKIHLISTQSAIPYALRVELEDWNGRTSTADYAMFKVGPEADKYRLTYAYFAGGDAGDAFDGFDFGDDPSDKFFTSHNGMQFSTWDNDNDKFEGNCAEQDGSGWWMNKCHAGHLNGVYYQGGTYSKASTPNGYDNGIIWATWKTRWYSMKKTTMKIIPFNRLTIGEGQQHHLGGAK
T1 sequence (P02675 164-491 partner limits assumed): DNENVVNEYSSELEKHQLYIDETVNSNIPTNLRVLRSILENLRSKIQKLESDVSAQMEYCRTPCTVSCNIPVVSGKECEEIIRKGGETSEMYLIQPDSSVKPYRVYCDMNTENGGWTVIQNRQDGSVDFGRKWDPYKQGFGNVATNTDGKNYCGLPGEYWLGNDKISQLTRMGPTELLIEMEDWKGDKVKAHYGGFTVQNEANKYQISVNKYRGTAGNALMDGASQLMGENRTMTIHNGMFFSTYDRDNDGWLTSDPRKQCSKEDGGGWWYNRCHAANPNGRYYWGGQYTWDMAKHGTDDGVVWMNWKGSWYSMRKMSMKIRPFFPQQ
T1 sequence (P02671 130-216 partner limits assumed): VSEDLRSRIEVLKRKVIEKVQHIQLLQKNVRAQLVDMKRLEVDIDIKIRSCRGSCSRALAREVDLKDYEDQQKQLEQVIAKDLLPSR
As to the kind of experiment: SPR surface competition assay with GPRP.

As a reminder, the Kd is a measure of binding affinity in units of concentration. The IC50 is the concentration needed to halve the response being measured.

Molecules are shown by their SMILES.

Regarding `N=C(N)NCCC[C@H](NC(=O)[C@@H]1CCCN1C(=O)CN)C(=O)N1CCC[C@H]1C(=O)O` [GPRP], the Kd on D-dimer was 25 µM. Besides, at D-dimer protein, the IC50 is ~50 µM.

The values are drawn from patent publication US9377466B2, “Compounds and methods” (Modpro AB, priority 2010, dated 2016).
